Assay results reported in paper PMC6410416 (Marine Drugs, 2019).

Chains of the proteins cited; added tags and fusions are not shown. Residues count along the entry.
UniProt A0A411L1L4, 22-255 limits assumed: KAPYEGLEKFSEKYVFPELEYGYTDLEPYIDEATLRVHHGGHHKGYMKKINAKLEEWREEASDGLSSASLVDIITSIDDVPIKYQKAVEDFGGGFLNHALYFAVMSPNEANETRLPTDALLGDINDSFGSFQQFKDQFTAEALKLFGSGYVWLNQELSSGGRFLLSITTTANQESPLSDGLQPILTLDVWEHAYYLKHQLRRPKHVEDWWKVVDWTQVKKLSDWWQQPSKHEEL

Target: Ps-Mn-SOD (Paelopatides sp. YL-2018, UniProt A0A411L1L4)
Assay: residual SOD activity, SOD assay kit, […] nm
Conditions: pre-incubated 1 h at 25 °C; SOD type test

## [N-]=[N+]=N
  relative activity at 10 mM: 90.39%
